Assay results from PubChem BioAssay AID2780 (Johns Hopkins Ion Channel Center, 2010).
The list shows a part of the results, in another mix than the full data. Calls of active or inactive are those of the source.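 Rule for the calls: active = membrane potential signal shifting up or down by more than 3 SD of buffer-only wells, on both duplicate plates; inactive = the rest.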

Assay: nonspecific voltage dye signal in HEK293 – cell-based, parental HEK293, counter-screen for TRPC6 inhibitor project, confirmation (AID 2780);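 note: plate controls were buffer EC0 wells for no effect and acetylcholine ECmax wells for full effect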
Details: parental HEK293 membrane potential dye fluorescence; at 10 µM
With `O=[N+]([O-])c1ccc(O)c(/C=N/Nc2ccc([N+](=O)[O-])cc2[N+](=O)[O-])c1` the membrane potential signal change was active: -174%. In the case of `CCC1=CC2Cc3nc4ccc(Cl)cc4c(N)c3C(C1)C2` (stereo not drawn), the membrane potential signal change is reported as active: -258%. In the case of `CN1CCCC(OC(=O)C(c2ccccc2)c2ccccc2)C1` (stereo not drawn), the membrane potential signal change is reported as active: 5.09%.
